This is an account of results in EP0848706B1, “SUBSTITUTED BENZENE-FUSED HETEROCYCLICS AS NEUROKININ ANTAGONISTS” (SCHERING CORPORATION, priority 1995, dated 1996).

By UniProt entry, the sequences of proteins in these tests, tags left out.
UniProt P25103, whole entry: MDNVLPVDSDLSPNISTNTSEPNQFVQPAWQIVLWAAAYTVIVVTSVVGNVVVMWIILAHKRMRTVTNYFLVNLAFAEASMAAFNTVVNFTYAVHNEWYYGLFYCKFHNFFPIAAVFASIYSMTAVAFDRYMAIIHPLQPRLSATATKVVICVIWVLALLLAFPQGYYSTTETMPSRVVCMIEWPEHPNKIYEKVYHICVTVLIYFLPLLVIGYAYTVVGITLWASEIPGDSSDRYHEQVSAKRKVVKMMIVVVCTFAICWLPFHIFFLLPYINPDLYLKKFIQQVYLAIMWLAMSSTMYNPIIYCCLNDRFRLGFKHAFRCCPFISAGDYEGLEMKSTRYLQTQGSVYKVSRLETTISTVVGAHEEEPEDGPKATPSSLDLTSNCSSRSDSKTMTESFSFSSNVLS

This test concerns the target human NK-1 receptor (Homo sapiens, UniProt P25103). In words: Neurokinin receptor binding assay, NK-1 ([3H]-Substance P, CHO cell membranes). To be noted: read-out: Ki(NK1); Ki according to Cheng and Prusoff from competition binding curves. As for the experimental part:
Chinese Hamster ovary (CHO) cells transfected with the coding regions for the human neurokinin 1 (NK1) of the human neurokinin 2 (NK2) receptors are grown in Dulbecco's minimal essential medium supplemented with 10% fetal calf serum, 0.1 mM non-essential amino acids, 2 mM glutamine, 100units/ml of penicillin and streptomycin, and 0.8 mg of G418/ml at 37°C in a humidified atmosphere containing 5% CO2.
Cells are detached from T-175 flasks with a sterile solution containing 5mM EDTA in phosphate buffered saline. Cells are harvested by centrifugation and washed in RPMI media at 40°C for 5 minutes. […]
To assay receptor binding, 50 µl of [^3H]-Substance P (9-Sar, 11-Met) (specific activity 41 Ci/mmol) (Dupont-NEN) (0.8 nM for the NK-1 assay) or [^3H]-Neurokinin A (specific activity 114 Ci/ mmole) (Zenca) (1.0 nM for the NK-2 assay) is added to tubes containing buffer (50 mM Tris-HCl (pH 7.4) with 1 mM MnCl2 and 0.2% Bovine Serum Albumin) and either DMSO or test compound. […] Filters are added to 6 mls of Ready-Safe liquid scintillation cocktail and quantified by liquid scintillation spectrometry in a LKB 1219 RackBeta counter. Non-specific binding is determined by the addition of either 1 µM of CP-99994 (NK-1) or 1µM SR-48968 (NK-2) (both synthesized by the chemistry department of Schering-Plough Research Institute). […]

The Ki is the dissociation constant of the complex between target and ligand, obtained from inhibition or displacement. `CN(CCc1c[nH]c2ccccc12)CCC(CN(C)C(=O)c1cc([N+](=O)[O-])cc(C(F)(F)F)c1)c1ccc(Cl)c(Cl)c1` (stereo not shown): the inhibition constant Ki was determined as 30 nM.
